Laboratory results: paper PMC11124336, “Myricetin Acts as an Inhibitor of Type II NADH Dehydrogenase from Staphylococcus aureus” (Molecules, 2024)

Target: T1, Type II NADH dehydrogenase (NDH-2, NdhC) (Staphylococcus aureus, UniProt Q2FZV7)
T1 sequence (Q2FZV7 1-402): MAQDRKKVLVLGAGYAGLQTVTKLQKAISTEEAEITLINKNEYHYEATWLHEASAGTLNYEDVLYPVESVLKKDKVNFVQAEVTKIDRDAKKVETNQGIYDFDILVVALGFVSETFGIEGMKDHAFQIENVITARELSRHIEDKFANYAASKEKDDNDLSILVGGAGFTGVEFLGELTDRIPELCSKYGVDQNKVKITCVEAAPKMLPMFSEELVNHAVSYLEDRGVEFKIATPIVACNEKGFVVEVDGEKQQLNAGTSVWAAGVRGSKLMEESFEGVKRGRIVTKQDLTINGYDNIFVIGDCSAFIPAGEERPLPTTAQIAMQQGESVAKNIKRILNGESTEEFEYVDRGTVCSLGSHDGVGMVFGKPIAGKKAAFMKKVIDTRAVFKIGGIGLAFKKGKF
Assay: biochemical
Set-up: gene SAOUHSC_00878

Compound `O=c1c(O)c(-c2cc(O)c(O)c(O)c2)oc2cc(O)cc(O)c12` [Myricetin, 3, 3′, 4′, 5, 5′, 7-hexahydroxy flavone] has an IC50 of 2000 nM.
